The target in this experiment is T1, Rat GALR2 (Rattus norvegicus, UniProt O08726).
T1 construct: expressed in transfected cells; host or cells: CHO/dhfr- cells (ATCC), vector pAKKO-1.11; membrane fraction
T1 sequence (O08726 1-372): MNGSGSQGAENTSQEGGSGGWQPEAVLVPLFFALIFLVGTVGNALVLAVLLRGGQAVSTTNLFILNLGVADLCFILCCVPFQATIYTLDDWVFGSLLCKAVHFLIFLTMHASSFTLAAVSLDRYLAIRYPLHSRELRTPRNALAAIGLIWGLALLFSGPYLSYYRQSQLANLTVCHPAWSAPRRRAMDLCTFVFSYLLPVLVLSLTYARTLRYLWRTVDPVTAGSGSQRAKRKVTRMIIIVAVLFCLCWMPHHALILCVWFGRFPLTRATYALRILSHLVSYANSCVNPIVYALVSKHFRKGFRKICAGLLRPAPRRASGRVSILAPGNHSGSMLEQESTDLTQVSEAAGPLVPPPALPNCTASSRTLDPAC
Put plainly: Galanin receptor binding experiment using [125I]rat galanin, GALR2 membrane fraction.

In general, IC50 refers to the concentration at which inhibition is half-maximal. Low readings indicate higher potency, high ones lower potency. `CC(C)C[C@H](NC(=O)[C@H](CC(C)C)NC(=O)[C@H](Cc1ccc(O)cc1)NC(=O)CNC(=O)[C@H](C)NC(=O)[C@H](CO)NC(=O)[C@H](CC(N)=O)NC(=O)[C@H](CC(C)C)NC(=O)[C@@H](NC(=O)[C@H](Cc1c[nH]c2ccccc12)NC(=O)CNC(=O)CNC(=O)[C@H](CCCNC(=N)N)NC(=O)CNC(=O)[C@H](CCCNC(=N)N)NC(=O)[C@H](Cc1c[nH]cn1)NC(=O)[C@@H](NC(=O)[C@@H]1CCCN1C(=O)[C@H](C)N)C(C)C)[C@@H](C)O)C(=O)NCC(=O)N1CCC[C@H]1C(=O)N[C@H](C(=O)N[C@@H](CC(C)C)C(=O)N[C@@H](Cc1c[nH]cn1)C(=O)N1CCC[C@H]1C(=O)N1CCC[C@H]1C(=O)N[C@@H](CO)C(=O)N[C@@H](CCCNC(=N)N)C(=O)N[C@@H](C)C(=O)N[C@@H](CCC(=O)O)C(=O)NCC(=O)NCC(=O)NCC(=O)N[C@@H](CCCCN)C(=O)O)C(C)C` [SEQ ID NO: 11 pig (1-34), pig-type ligand peptide (1-34)] had an IC50 of 1.4 nM.

Consider `CC(C)C[C@H](NC(=O)[C@H](CC(C)C)NC(=O)[C@H](Cc1ccc(O)cc1)NC(=O)CNC(=O)[C@H](C)NC(=O)[C@H](CO)NC(=O)[C@H](CC(N)=O)NC(=O)[C@H](CC(C)C)NC(=O)[C@@H](NC(=O)[C@H](Cc1c[nH]c2ccccc12)NC(=O)CNC(=O)CNC(=O)[C@H](CCCNC(=N)N)NC(=O)CNC(=O)[C@H](CCCNC(=N)N)NC(=O)[C@H](Cc1c[nH]cn1)NC(=O)[C@@H](NC(=O)[C@@H]1CCCN1C(=O)[C@H](C)N)C(C)C)[C@@H](C)O)C(=O)NCC(=O)N1CCC[C@H]1C(=O)N[C@H](C(=O)N[C@@H](CC(C)C)C(=O)N[C@@H](Cc1c[nH]cn1)C(=O)N1CCC[C@H]1C(=O)N1CCC[C@H]1C(=O)N[C@@H](CO)C(=O)N[C@@H](CCCNC(=N)N)C(=O)N[C@@H](C)C(=O)N[C@@H](CCC(=O)O)C(=O)O)C(C)C` [SEQ ID NO: 43 pig (1-30), pig-type ligand peptide (1-30)], for which the IC50 was found to be 1.4 nM.

Values taken from patent US20040077531A1, “Use of galanin-like peptide” (priority 2001, published 2004).
